Test results published in patent US20230106519A1, “GOLD(III)-BIGUANIDE PRODRUGS, METHODS OF PREPARATION AND USES THEREOF” (National University of Singapore, priority 2020, published 2023).

Tests used:
[1] = system: A2780cisR (ovarian carcinoma); assay: MTT cytotoxicity assay, A2780cisR; conditions: IC50 (A2780cisR)/IC50 (A2780)
[2] = system: MDA-MB-231 (breast adenocarcinoma); assay: MTT cytotoxicity assay, MDA-MB-231; conditions: tested cancer cell lines, MTT 72 h

[H]/N=C(/N)N/C(=N/[H])NCCc1ccccc1 [Phenformin]
RF (Resistance Factor) [1]: 2
cytotoxicity in words [2]: only marginally cytotoxic
